Measurements: PMC6032384 (International Journal of Molecular Sciences, 2018)

Experiments:
[1] = tested on: HCT116 (human colon carcinoma); settings: HCT116, AB assay, 72 h
[2] = tested on: K-562 (human chronic myelogenous leukemia); settings: for IC50: K562, AB assay, 72 h
[3] = tested on: B16-F10 (mouse melanoma); settings: B16-F10, AB assay, 72 h
[4] = tested on: MCF7 (human breast carcinoma)
[5] = tested on: HL-60 (human promyelocytic leukemia); settings: for IC50: HL-60, AB assay, 72 h
[6] = tested on: HSC-3 (human oral squamous cell carcinoma)
[7] = tested on: HepG2 (human hepatocellular carcinoma); settings: HepG2, AB assay, 72 h
[8] = tested on: HCT116 (human colon carcinoma); assay: cells; settings: HCT-116, 72 h
[9] = tested on: B16-F10 (mouse melanoma); assay: cells; settings: B16-F10, 72 h
[10] = tested on: HL-60 (human promyelocytic leukemia); assay: cells; settings: HL-60, 72 h
[11] = tested on: K-562 (human chronic myelogenous leukemia); assay: cells; settings: K562, 72 h
[12] = tested on: HSC-3 (human oral squamous cell carcinoma); assay: cells; settings: HSC-3, 72 h
[13] = tested on: HepG2 (human hepatocellular carcinoma); assay: cells; settings: HepG2, 72 h

Cc1c[nH]c(=O)[n-]c1=O.F[P-](F)(F)(F)(F)F.[Ru+2].c1ccc(-c2ccccn2)nc1.c1ccc(P(c2ccccc2)c2ccccc2)cc1.c1ccc(P(c2ccccc2)c2ccccc2)cc1 [CRT, [Ru(PPh3)2(Thy)(bipy)]PF6]
IC50 [1]: 1600 nM | IC50 [2]: 1300 nM | IC50 [3]: 1400 nM | IC50 ([4]; MCF7, AB assay, 72 h): 11100 nM | IC50 [5]: 1400 nM | IC50 ([6]; HSC3, AB assay, 72 h): 1100 nM | IC50 [7]: 2800 nM

COc1cccc2c1C(=O)c1c(O)c3c(c(O)c1C2=O)C[C@@](O)(C(=O)CO)C[C@@H]3O[C@H]1C[C@H](N)[C@H](O)[C@H](C)O1 [DOX, Doxorubicin]
IC50 [8]: 100 nM | Selectivity index (SI) ([2]; IC50[MRC5]/IC50[K-562]): 5 | Selectivity index (SI) ([2]; IC50[PBMC]/IC50[K-562]): 17 | IC50 [9]: 100 nM | IC50 [10]: 300 nM | IC50 [11]: 300 nM | Selectivity index (SI) ([4]; IC50[PBMC]/IC50[MCF7]): 4.6 | Selectivity index (SI) ([5]; IC50[MRC5]/IC50[HL-60]): 5 | Selectivity index (SI) ([5]; IC50[PBMC]/IC50[HL-60]): 17 | IC50 [12]: 300 nM | Selectivity index (SI) ([6]; IC50[MRC5]/IC50[HSC-3]): 5 | Selectivity index (SI) ([6]; IC50[PBMC]/IC50[HSC-3]): 17 | IC50 [13]: 100 nM

O=C1[O][Pt]2([NH][C@@H]3CCCC[C@H]3[NH]2)[O]C1=O [OXA, Oxaliplatin]
IC50 [2]: 1000 nM | IC50 [5]: 600 nM

Read-outs that look alike come from different tables or passages of the source.
